Laboratory results from US20060094783A1 (Tava Pharmaceutical Industries, Ltd., priority 1990, published 2006).

How the values were obtained:
[1] = test system: α-MpT-induced hypokinesia in rats; test: Reversal of α-MpT-induced hypokinesia in rats; type: in vivo, rat; details: 5 mg/kg i.p., vs saline control
[2] = test system: mice; test: Rotorod ataxia test (acute neurotoxicity); details: 300 mg/kg
[3] = test system: mice; details: mouse, in vivo, 300 mg/kg

Structure (SMILES): C#CCNC1CCc2ccccc21 (racemic) [Rac PAI Mesylate]
- % of control [1]: 69%

Structure (SMILES): C#CCN[C@@H]1CCc2ccccc21.CS(=O)(=O)O [(R)-PAI Mesylate, R-(+)-N-propargyl-1-aminoindan mesylate]
- acute neurotoxicity [2]: did not show any neurotoxicity

Structure (SMILES): C#CCN[C@H]1CCc2ccccc21 [(S)-PAI Mesylate]
- acute neurotoxicity [3]: four out of four

Structures can show the parent of a compound that is named as a salt. Where two headings read alike, the source gives them in different places.
